pKi: −log10 of the molar value.
Molecular target: human CCR1 receptor (Homo sapiens, UniProt P32246)
Experiment: In vitro assay for CCR1 receptor antagonists: competition with 125I-MIP-1α or 125I-RANTES on 293MR cells
Format: binding
Details: for Ki: Table 1

Amino acid sequences for entries named in this document (tags omitted).
UniProt P32246, whole entry: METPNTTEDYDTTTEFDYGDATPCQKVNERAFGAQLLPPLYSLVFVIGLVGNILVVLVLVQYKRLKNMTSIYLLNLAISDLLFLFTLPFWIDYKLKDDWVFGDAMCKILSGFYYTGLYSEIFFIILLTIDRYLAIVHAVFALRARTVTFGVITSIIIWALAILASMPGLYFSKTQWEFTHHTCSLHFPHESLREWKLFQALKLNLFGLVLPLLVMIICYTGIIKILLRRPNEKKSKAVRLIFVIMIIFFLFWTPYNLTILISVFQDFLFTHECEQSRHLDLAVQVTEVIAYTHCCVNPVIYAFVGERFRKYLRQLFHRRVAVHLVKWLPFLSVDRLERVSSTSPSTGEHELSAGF

Structure (SMILES) | Ki (cells printed in μM) [µM] | Ki (cells printed in nM) [µM] | other results
[N-]=[N+]=NCCC1CN(Cc2ccc(F)cc2)CCN1C(=O)COc1ccc(Cl)cc1 (centres unmarked) |  |  | pKi (Table 2): 7.31
COc1cccc(OCC(=O)N2CCN(Cc3ccccc3)CC2)c1 | > 10 |  | 
COc1cc(OCC(=O)N2CCN(Cc3ccccc3)CC2)cc(OC)c1OC |  | 0.328 | 
CC1CN(Cc2ccc(F)cc2)CCN1C(=O)C(C)(C)Oc1ccc(Cl)cc1 (centres unmarked) | > 10 |  | 
COc1cc(OCC(=O)N2CCN(Cc3ccc(F)cc3)CC2C)cc(OC)c1OC (centres unmarked) |  | 0.018 | 
COc1ccc(OCC(=O)N2CCN(Cc3ccccc3)CC2)cc1 | > 10 |  | 
CC1CN(C(=O)COc2ccc(Cl)cc2)C(C)CN1Cc1ccc(F)cc1 (centres unmarked) |  | 0.004 | 
CC1CN(Cc2ccc(F)cc2)CCN1C(=O)COc1ccc(Cl)cc1 (centres unmarked) |  | 0.01 | 

Source: patent US20080119471A1, “Piperazine urea derivatives for the treatment of endometriosis” (priority 2004, published 2008)
